We go through three substances from patent US4774345A, “Amine-complexed zinc salts of organic diacids” (Engelhard Corporation, priority 1986, dated 1988).

For data set [1] the following is noted: water.
Data set [2] can be described thus: Electrochemical testing (Tafel Plot), corrosion current, corrosion potential and pH of simulated acid rain saturated with pigment.

Take Zinc Dibasate Diethylamine [Compound 9]: the “Solubility Description” value in data set [1] was “PINS (key: PINS: practically insoluble (<.1 g/100 cc H2 O); SS: slightly soluble (.1 to 1 g/100 cc H2 O); MS: moderately soluble)”.

As for “Zinc Dibasate Dimethylamine [Compound 21]”, in data set [2], the pH is 6.85.

In data set [2], Zinc Dibasate Piperidine [Compound 24] came in with a pH of 7.1.
